Data published in patent publication US11123340B2, “Small-molecule UT-A-selective urea transport inhibitors” (The Regents of the University of California, priority 2014, dated 2021).

Chains of the proteins cited; added tags and fusions are not shown.
UniProt Q62668, whole entry: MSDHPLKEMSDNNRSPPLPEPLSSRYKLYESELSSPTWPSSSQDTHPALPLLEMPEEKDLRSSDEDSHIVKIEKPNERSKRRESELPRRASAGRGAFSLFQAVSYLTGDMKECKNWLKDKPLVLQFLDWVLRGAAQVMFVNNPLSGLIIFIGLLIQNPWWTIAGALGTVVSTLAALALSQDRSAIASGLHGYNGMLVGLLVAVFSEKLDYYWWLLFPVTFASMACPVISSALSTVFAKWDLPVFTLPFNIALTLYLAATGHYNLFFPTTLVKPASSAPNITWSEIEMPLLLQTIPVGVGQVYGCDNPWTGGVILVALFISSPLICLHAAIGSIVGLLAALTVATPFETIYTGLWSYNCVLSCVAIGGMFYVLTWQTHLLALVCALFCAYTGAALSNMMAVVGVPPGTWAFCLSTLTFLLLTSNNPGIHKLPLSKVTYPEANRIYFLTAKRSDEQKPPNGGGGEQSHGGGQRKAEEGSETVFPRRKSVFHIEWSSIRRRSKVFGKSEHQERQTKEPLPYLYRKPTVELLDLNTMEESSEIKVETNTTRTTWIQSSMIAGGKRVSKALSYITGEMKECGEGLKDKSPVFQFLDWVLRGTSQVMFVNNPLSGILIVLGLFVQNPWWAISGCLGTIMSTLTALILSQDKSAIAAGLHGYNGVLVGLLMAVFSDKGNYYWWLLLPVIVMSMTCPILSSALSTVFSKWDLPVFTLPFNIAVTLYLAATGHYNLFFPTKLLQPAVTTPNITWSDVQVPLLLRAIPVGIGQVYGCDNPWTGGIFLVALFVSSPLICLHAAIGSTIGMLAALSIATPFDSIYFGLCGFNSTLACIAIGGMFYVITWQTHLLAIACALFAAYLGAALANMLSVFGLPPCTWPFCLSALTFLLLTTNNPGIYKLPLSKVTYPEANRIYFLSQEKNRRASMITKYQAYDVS
UniProt P97689, whole entry: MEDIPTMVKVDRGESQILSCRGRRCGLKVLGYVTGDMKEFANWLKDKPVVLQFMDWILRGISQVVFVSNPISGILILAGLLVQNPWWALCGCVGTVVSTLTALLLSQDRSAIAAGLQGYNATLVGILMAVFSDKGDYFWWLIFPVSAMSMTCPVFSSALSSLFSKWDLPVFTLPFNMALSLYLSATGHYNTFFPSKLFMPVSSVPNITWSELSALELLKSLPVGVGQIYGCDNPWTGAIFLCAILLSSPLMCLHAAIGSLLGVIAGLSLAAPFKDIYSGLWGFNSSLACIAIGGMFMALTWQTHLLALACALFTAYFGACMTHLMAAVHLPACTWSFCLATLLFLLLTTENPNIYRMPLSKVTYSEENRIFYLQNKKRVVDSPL

Legend:
[1] = molecular target: rat UT-A1 (Rattus norvegicus, UniProt Q62668); assay: UT-A1 inhibition, fluorescence plate reader assay in MDCK cells expressing UT-A1, AQP1 and YFP-H148Q/V163S; settings: read-out: IC50 (μM) UT-A1
Method: Primary screening was done using a collection of 50,000 chemically diverse, drug-like compounds from ChemDiv (San Diego, Calif.). For analysis of structure-activity relationships, >300 commercially available analogs (ChemDiv and Asinex, Winston-Salem, N.C.) were tested. Cells were plated on black 96-well Costar microplates with clear plastic bottoms (Corning, Corning, N.Y.) at 15,000 cells/well and cultured for 24 h at 37° C. before assay. Microplates containing cultured cells were washed twice with PBS and 150 μL of test compound (25 μM final) in PBS was added. Eighty wells contained test compounds, and the first and last columns of each plate contained negative (dimethyl sulfoxide, DMSO) and positive (0.35 mM phloretin) controls. The assays were done on a plate reader (Tecan Trading AG, Switzerland) equipped with a custom YFP filter set. Each assay consisted of a continuous 15-s read (5 Hz) in which 50 μL of 3.2 M urea in PBS was injected at 1 s (at 130 μL/s) to give a 800 mM final urea gradient.
MDCK cells stably expressing rat UT-A1 (see, e.g., Frohlich et al. (2006) Am J Physiol Cell Physiol. 291, C600-D606), YFP-H148Q/V163 S (see, e.g., Galietta, et al. (2001) FEBS Lett. 499, 220-224) and human AQP1, as described previously (see, e.g., Esteva-Font et al. (2013) Chem Biol. 20, 1235-1244), were grown in Dulbecco's modified Eagle medium (DMEM) containing 10% fetal bovine serum (FBS), penicillin G (100 U/mL), streptomycin (100 μg/mL), zeocin (500 μg/mL), geneticin (600 μg/mL) and Hygromycin (500 μg/mL) at 37° C., 5% CO2. A Cell Clone with bright YFP fluorescence and relatively low AQP1 expression was used for the screen to maximize dynamic range.
In order to identify UT-A inhibitors suitable for testing in rats, a collection of 50,000 synthetic small molecules was screened. As diagrammed in FIG. 1A (top), the fluorescence cell-based screen utilized MDCK cells stably rat expressing UT-A1, water channel AQP1 and the cytoplasmic chloride-sensing fluorescent protein YFP-H148Q/V163S. As described and validated previously (see, e.g., Esteva-Font et al. (2013) Chem Biol. 20, 1235-1244), extracellular addition of urea results in osmotic water efflux and cell shrinking, which increases intracellular chloride concentration and reduces YFP fluorescence. Urea entry results in increasing YFP fluorescence as cells re-swell. Inhibitors of UT-A1 urea transport produce a lesser reduction in fluorescence and slowed recovery.

[2] = molecular target: rat UT-B (Rattus norvegicus, UniProt P97689); assay: UT-B inhibition, erythrocyte lysis assay; settings: read-out: IC50 (μM) UT-B; rat erythrocytes
Method: As described (see, e.g., Levin et al. (2007) FASEB J. 21, 551-563), whole rat blood was diluted to a hematocrit of ˜1.5% in PBS containing 1.25 M acetamide and 5 mM glucose. Erythrocyte suspensions (100 μL) were added to 96-well round-bottom microplates and test compounds (1 μL) were added. After 15 min incubation, 20 μL of the erythrocyte suspension was added rapidly to each well containing 180 μL of PBS. Following vigorous mixing, erythrocyte lysis was quantified by absorbance at 710 nm. Non-lysed controls (isosmolar buffer) and lysed controls (0.7 mM phloretin) were added in each plate as negative and positive controls, respectively. Percentage erythrocyte lysis was computed as: % lysis=100% (Aneg−Atest)/(Aneg−Apos), where A is absorbance at 710 nm.
Inhibitor selectivity for rat UT-A1 versus UT-B was investigated using an erythrocyte lysis assay of rat UT-B urea transport, which involved measurement of hypotonic lysis (by near-infrared absorbance) of acetamide-loaded erythrocytes following rapid dilution into acetamide-free buffer.

CCS(=O)(=O)N1CCCc2ccc(NS(=O)(=O)c3cc(C)ccc3OC)cc21
IC50 [1]: 20 µM | IC50 [2]: 5 µM

CCS(=O)(=O)N1CCCc2ccc(NS(=O)(=O)c3cc(C)c(C)cc3OC)cc21
IC50 [1]: 6 µM | IC50 [2]: 12 µM

CCc1ccc(OC)c(S(=O)(=O)Nc2ccc3c(c2)N(S(=O)(=O)CC)CCC3)c1
IC50 [1]: 6 µM | IC50 [2]: 10 µM

CCCS(=O)(=O)N1CCCc2ccc(NS(=O)(=O)c3cc(Cl)ccc3OC)cc21
IC50 [1]: 2.5 µM | IC50 [2]: 6 µM

CCCS(=O)(=O)N1CCCc2ccc(NS(=O)(=O)c3cc(C)c(C)cc3OC)cc21
IC50 [1]: 10 µM | IC50 [2]: 12 µM
